# Test results from PubChem BioAssay AID2435 (The Scripps Research Institute Molecular Screening Center, 2010).
# Protein sequences, listed by entry. Tags and fused reporters are not part of them.
# UniProt P30559, whole entry: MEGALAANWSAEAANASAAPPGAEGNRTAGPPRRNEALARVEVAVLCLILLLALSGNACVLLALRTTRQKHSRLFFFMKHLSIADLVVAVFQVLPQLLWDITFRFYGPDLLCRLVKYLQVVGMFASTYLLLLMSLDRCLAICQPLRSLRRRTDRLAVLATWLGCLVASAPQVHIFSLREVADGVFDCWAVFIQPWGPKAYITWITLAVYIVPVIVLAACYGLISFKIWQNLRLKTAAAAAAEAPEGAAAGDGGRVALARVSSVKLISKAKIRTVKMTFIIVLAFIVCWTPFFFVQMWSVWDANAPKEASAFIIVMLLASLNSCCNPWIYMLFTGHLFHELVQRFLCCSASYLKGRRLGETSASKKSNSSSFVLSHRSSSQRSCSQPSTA
# This is a selection; strong and weak results do not stand in their true shares. Calls of active or inactive are those of the source.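 How the source made its calls: active means activation above the mean of all tested compounds plus 3 SD, cutoff set per screening run (cut at about 20% in these data); inactive means the rest.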
# Molecular target: Oxytocin receptor (Homo sapiens) (UniProt P30559)
# Assay: oxytocin receptor activation by calcium flux – fluorescence, CHO-OTR cells, Fluo-8 calcium, primary screen (AID 2435);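 further: peak over basal fluorescence ratio from a 100 s FLIPR kinetic read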
# Conditions: Fluo-8 calcium fluorescence, at 3 µM, stronger effect = higher value, normalized: DMSO 0%, oxytocin 100%
row,SMILES,activation
1,CCC(=O)N(c1ccccc1)C1(COC)CCN(CCc2cccs2)CC1,inactive: -0.24%
2,CCC(=O)N(c1ccccc1)C1(COC)CCN(CCn2nnn(CC)c2=O)CC1,inactive: 0.9%
